PubChem BioAssay AID602143 (Vanderbilt Specialized Chemistry Center, 2011)
The list shows a part of the results, in another mix than the full data. The source made the active and inactive calls. Cut-off read from the data, not from the text of the source: active = remaining activity below about 50%; inactive = the rest.

By UniProt entry, the sequences of proteins in these tests, tags left out.
UniProt O14939, whole entry, looked up: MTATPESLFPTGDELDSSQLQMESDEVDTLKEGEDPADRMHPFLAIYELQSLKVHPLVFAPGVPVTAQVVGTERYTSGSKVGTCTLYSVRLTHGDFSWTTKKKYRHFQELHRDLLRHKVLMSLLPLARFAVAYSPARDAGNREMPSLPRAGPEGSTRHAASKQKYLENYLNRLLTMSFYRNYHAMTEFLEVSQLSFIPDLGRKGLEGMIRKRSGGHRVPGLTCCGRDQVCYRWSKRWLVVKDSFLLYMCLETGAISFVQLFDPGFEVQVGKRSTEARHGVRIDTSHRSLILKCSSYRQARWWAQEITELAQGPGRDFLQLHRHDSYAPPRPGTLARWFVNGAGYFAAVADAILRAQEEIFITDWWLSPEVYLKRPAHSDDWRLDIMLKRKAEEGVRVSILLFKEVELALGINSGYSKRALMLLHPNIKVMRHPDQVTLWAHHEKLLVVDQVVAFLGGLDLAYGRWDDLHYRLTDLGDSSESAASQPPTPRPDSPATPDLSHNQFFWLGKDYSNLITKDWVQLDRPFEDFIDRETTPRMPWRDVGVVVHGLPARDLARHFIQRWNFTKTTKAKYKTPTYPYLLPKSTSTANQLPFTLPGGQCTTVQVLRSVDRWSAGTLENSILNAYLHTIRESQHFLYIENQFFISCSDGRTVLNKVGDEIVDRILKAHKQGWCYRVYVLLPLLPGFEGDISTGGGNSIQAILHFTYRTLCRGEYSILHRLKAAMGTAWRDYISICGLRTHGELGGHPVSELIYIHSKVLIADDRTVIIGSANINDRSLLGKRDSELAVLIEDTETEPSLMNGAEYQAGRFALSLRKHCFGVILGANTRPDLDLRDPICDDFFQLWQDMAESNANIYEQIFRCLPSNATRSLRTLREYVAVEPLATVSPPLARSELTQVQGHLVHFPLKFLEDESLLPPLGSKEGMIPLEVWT

Target: Phospholipase D2 (Homo sapiens) (UniProt O14939)
Test: cellular phospholipase D2 activity inhibition – cell-based, HEK293, single concentration (AID 602143);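 note: tested at 200 nM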
Conditions: HEK293 cellular PLD2 activity, percent of control; hits give low values

`O=C(CN1CCC(n2c(=O)[nH]c3ccccc32)CC1)c1ccccc1` was tested. Which remaining activity did it give?
The remaining activity was inactive: 97.8%.
